Assay outcomes from PubChem BioAssay.
Hits are enriched below; roughly 3.7% of the tested compounds scored in any of these assays.
A549 viability = counter-screen for Nrf2 inhibitors: cytotoxicity in A549 cells | A549 ARE-Fluc cells, CellTiter-Fluor viability, 18-24 h | Potency, µM (doses to about 46 µM), inactives show at the highest dose activity change, negative = cytotoxicity, actives largely listed as inhibitors | actives 0.16% (n = 390,000) | AID 504648; further: potency means the concentration at half of the fitted maximal effect; on the % scale 0 is the no-effect control and ±100 the full control effect
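Cytotoxicity counterscreen: CellTiter-Fluor fluorescence was measured in A549 ARE_Fluc cells after 18-24 h of compound exposure in a concentration series. The subsequent BugLite luminescent read reports ARE-luciferase activity.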
Nrf2 ARE act = activates Nrf2 signaling | actives 0.31% (n = 410,000) | AREc32 ARE-luciferase reporter (MCF7-derived line), luminescence, 24 h | Potency, µM (titrated, usually from 46.1 µM), for the others: top-dose activation, most hits filed as activators | AID 624171; further: potency means the concentration at half of the fitted maximal effect; % of control where 0% means no effect; nearly all actives have a fitted effect of over 65% in size
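Reporter line AREc32 (ARE-Fluc), seeded overnight in OPTI-MEM with 5% FBS; compound pin-transferred, 24 hr at 37 deg C, 5% CO2; luminescent read-out.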
Nrf2 block = Nrf2 pathway inhibition; actives 2.1% (n = 360,000); A549 ARE-Fluc reporter, luciferase luminescence, 18-24 h; Potency, µM (highest dose often 46 µM), for the others: top-dose activity change, negative = inhibition, most hits filed as inhibitors; further: potency means the concentration at half of the fitted maximal effect; on the % scale 0 is the no-effect control and ±100 the full control effect; nearly all actives have a fitted effect of over 60% in size
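Nrf2 function is reported as luminescence of an ARE-controlled luciferase in A549 cells. Compounds were tested at several concentrations, and a CellTiter-Fluor read on the same wells flagged cytotoxicity.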
IL-2 act = activators of IL-2; IL-2 activation reporter assay, cell-based qHTS; stimulated with anti-CD3/CD4/CD28 beads; in transgenic mouse T cells; activation, % (series mostly up to about 46 µM); actives 0.065% (n = 360,000); in the data active means activation above about 50%; inconclusive means mostly about 30% to 49%; further: 0% is about no effect
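Unstimulated transgenic mouse T cells; 60-min compound exposure; bead-based TCR/CD4/CD28 stimulation; 18 h culture, 37 degrees C; dual fluorescence (EGFP, DsRed) plate cytometry.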
ClpP mod = qHTS Assay for Activators of ClpP. actives 1.9% (n = 340,000). purified B. subtilis ClpP, FRET peptide cleavage, 20 min. Potency, µM (highest dose often 57.5 µM), for the others: top-dose activity change, negative = active; active means well fitted falling curve with a large enough effect; inconclusive means small, poorly fitted or top-dose-only effect; inactive means no such curve, though single readings can be large or run the other way; further: potency means the concentration at half of the fitted maximal effect; the source files actives as falling curves though it sought activators and does not explain the sign; nearly all actives have a fitted effect of over 65% in size
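Purified B. subtilis ClpP, 10 microg/mL final in Tris/HCl pH8 with KCl, BSA, glycerol and Tween-20, cleaved an Abz/nitrotyrosine-quenched decapeptide. Fluorescence (ex 320, em 430) was read at 0 and 20 min at room temperature. Delta was normalized to 5.8 microM ADEP and DMSO/no-enzyme controls.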
miR-21 FLuc = miR-21 reporter, rising signal | HeLa miR-21 FLuc reporter, luciferase, 48 h | Potency, µM (highest dose often 38.3 µM), for inactives: at the top dose reporter change, positive = more light | 340,000 tested, under 10 active | AID 2288; active = well fitted rising curve with a large enough effect; inconclusive = small, poorly fitted or top-dose-only effect; inactive = no such curve, though single readings can be large or run the other way;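 further: % of control where 0% means no effect; miR-21 action dims this reporter so a rising signal means less miR-21 action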
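HeLa cells stably expressing CMV-driven firefly luciferase with a downstream miR-21 binding sequence, endogenously expressing miR-21, were treated with titrations (up to about 40uM final) for 48 hours at 37 degree Celsius. Luciferase luminescence was read after lysis.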
* hit, by the source's call; ? = inconclusive; . = no result; [ ] = another dose, or the depositor's remark. Unless noted, the call rests on the fitted dose curve; in most records, active means well fitted curve in the direction sought with a large enough effect; inconclusive means small, poorly fitted or top-dose-only effect, or another doubt; inactive means no such curve, though single readings can be large; an effect the other way counts as inactive or inconclusive.

[1] CCc1nc(N2CCN(C(=O)CCl)CC2)c2c3c(sc2n1)CC(C)CC3 (centres undefined)
[2] CCc1nc(N2CCN(C(C)=O)CC2)c2c3c(sc2n1)CC(C(C)(C)C)CC3 (centres undefined)
[3] COC(=O)c1ccccc1NC(=O)N[C@@H](C)C(=O)OC
[4] CCOC(=O)c1ccccc1NC(=O)N[C@@H](C)C(=O)OC
[5] O=C(NCc1nnc(-c2nc3ccccc3[nH]2)o1)C1CCCCC1
[6] Cc1cc2c(s1)c1cnn(Cc3c(F)cc(F)cc3F)c(=O)c1n2C
[7] Cc1cccc(N2CCN(C(=O)c3c(C)oc4ncnc(N5CCCCC5)c34)CC2)c1C
[8] Cc1cc2c(s1)c1cnn(Cc3ccccc3C)c(=O)c1n2C
assay / compound,1,2,3,4,5,6,7,8
A549 viability,-5%,-6%,3%,15%[1.84 µM],-6%,-3%,-13%,-2%
Nrf2 ARE act,?,4%,0%,-1%,.,.,-1%,.
Nrf2 block,1%,18µM*,-11%,11%,-8%,6%,-34%,-11%
IL-2 act,-4,0,0,-1,.,.,.,.
ClpP mod,.,-1%,28µM*,20µM*,.,.,1%,.
miR-21 FLuc,?,-5%,6%,-2%,.,.,24%,.

Part of the list above in order of number of heavy atoms, rising:
[4] CCOC(=O)c1ccccc1NC(=O)N[C@@H](C)C(=O)OC
[8] Cc1cc2c(s1)c1cnn(Cc3ccccc3C)c(=O)c1n2C
[1] CCc1nc(N2CCN(C(=O)CCl)CC2)c2c3c(sc2n1)CC(C)CC3 (centres undefined)
assay / compound,4,8,1
A549 viability,15%[1.84 µM],-2%,-5%
Nrf2 ARE act,-1%,.,?
Nrf2 block,11%,-11%,1%
IL-2 act,-1,.,-4
ClpP mod,20µM*,.,.
miR-21 FLuc,-2%,.,?

The list continues:
[9] COc1cccc(-c2ccc(-c3noc(-c4ccccc4F)n3)c(OC)n2)c1
[10] COc1nc(C)ccc1-c1noc(-c2ccccn2)n1
[11] COc1ccc(-c2ccc(-c3noc(-c4cc(OC)cc(OC)c4)n3)c(OC)n2)cc1
[12] COc1ccccc1-c1nc(-c2ccc(C)nc2OC)no1
[13] COc1ccc(NC(=O)CSc2nc(O)c(C/C=C/c3ccccc3)c(=O)[nH]2)cc1
[14] Cc1cc(C)nc(-n2nc(C)c3c2N(Cc2ccccc2C)C(=O)CC3c2ccc(Cl)cc2)n1 (centres undefined)
[15] Cc1cccc(CNC(=O)Cn2c(-c3cccs3)cc3ccccc32)c1
[16] CC(C)Oc1ccc(CNC(=O)Cn2c(-c3cccs3)cc3ccccc32)cc1
assay / compound,9,10,11,12,13,14,15,16
A549 viability,-15%,12%,-6%,-9%,3%,7%,2%,7%
Nrf2 ARE act,-1%,-1%,-1%,5%,3%,0%,0%,0%
Nrf2 block,-7%,.,1%,?,3%,7%,-2%,?
IL-2 act,0,3,.,-3,.,.,.,.
ClpP mod,14µM*,-3%,16µM*,14µM*,1%,-1%,14µM*,35µM*
miR-21 FLuc,-7%,-58%,-19%,-66%,-1%,-1%,0%,4%

[17] COc1cccc(CCNC(=O)Cn2c(-c3cccs3)cc3ccccc32)c1
[18] CCc1ccc(CNC(=O)Cn2c(-c3cccs3)cc3cc(F)ccc32)cc1
[19] Cc1oc2cc(O)ccc2c(=O)c1Oc1ccc(F)cc1
[20] Oc1ccc2c(c1)oc1cc(O)ccc12
[21] COc1c(C)oc2cc(O)ccc2c1=O
[22] COc1cccc(CN(C)C(=O)C2CC(=O)N(c3ccc4c(c3)OCCO4)C2)c1 (centres undefined)
[23] O=C(CCC1N=C2c3ccccc3N=C(SCc3ccccc3F)N2C1=O)NC1CCCCC1 (centres undefined)
[24] NC(=O)c1ccccc1NC(=O)c1ccccc1Cl
[25] CC(NC(=O)Nc1nnc(C(F)(F)F)s1)(C(F)(F)F)C(F)(F)F
[26] O=C(Nc1ccccc1C(=O)Nc1nnc(C(F)(F)F)s1)c1ccccc1Cl
[27] Cc1cc(C(=O)Nc2nnc(C(F)(F)F)s2)no1
assay / compound,17,18,19,20,21,22,23,24,25,26,27
A549 viability,-9%,-1%,2%,-6%[1.84 µM],10%,-8%,2%,7%,16µM*,16µM*,-5%
Nrf2 ARE act,0%,9%,4%,13µM*,0%,0%,26%,0%,0%,2%,0%
Nrf2 block,-22%,-19%,-2%,?,-10%,-14%,.,9%,5.2µM*,6.5µM*,4%
IL-2 act,.,.,-1,-2,-2,-1,.,-2,-1,-5,1
ClpP mod,4%,5%,4%,32µM*,18µM*,14µM*,?,0%,0%,.,-1%
miR-21 FLuc,-7%,0%,-3%,-31%,-5%,.,-2%,-15%,29%,?,-18%
